Reference: article PMC9610285, “Polymorphism of Drug Transporters, Rather Than Metabolizing Enzymes, Conditions the Pharmacokinetics of Rasagiline” (Pharmaceutics, 2022)

Settings: SLC22A1*5 (rs34059508) *1/*5, n=5; 1 mg single oral dose, fasting
Description: The data used in this work were obtained from four bioequivalence clinical trials conducted at the Clinical Trials Unit of the Hospital Universitario de La Princesa (UECHUP) (EUDRA-CT IDs: 2012-004433-17, 2013-002159-14, 2014-001123-77 and 2021-000315-23). […] The reference formulation (R) in all cases was Azilect® 1 mg tablets (TEVA Pharmaceuticals Europe B.V.), which was compared against different test formulations (T), all of them 1 mg tablets, except in clinical trial 3, whose test formulation was orodispersible 1 mg. The four bioequivalence trials had two periods and two sequences (TR and RT). […]
In each period, the drug was administered under fasting conditions, which were maintained until 5 h after drug administration. […] The latter was validated according to European regulations for bioequivalence assessment, with a lower limit of quantification (LLOQ) of 10 pg/mL and a calibration range of 10–10,000 pg/mL.
Pharmacokinetic parameters were calculated with WinNonlin Professional (Scientific Consulting, Inc., Cary, NC, USA) following a non-compartmental model. […] The extrapolation to infinity (AUC0-∞) was determined by the sum of two partial AUCs: AUCt-∞ calculated by the ratio Ct/k, where Ct is the last detectable concentration and k the elimination slope; plus AUC0-t. Cmax and tmax were directly obtained from the plasma time-concentration curves. t1/2 was calculated as Ln2/k. […]

Vd/F: 15.36 ± 4.85 L/kg
SMILES: C#CCN[C@@H]1CCc2ccccc21 [rasagiline, Rasagiline]
